CycPeptMPDB entries from one study

Values of Kelly et al. 2021, doi:10.1021/jacs.0c06115, as listed in CycPeptMPDB.

PAMPA is the parallel artificial membrane permeability assay, which has no cells and reads passive diffusion.
Permeability is given as log10 of P in cm/s; higher (less negative) is more permeable.

compound | PAMPA (log10 cm/s)
CC(=O)N1CCC[C@H]1C(=O)N(C)[C@@H](CC(C)C)C(=O)N[C@@H]1C(=O)N(C)[C@H](CC(C)C)C(=O)N[C@@H](CC(C)C)C(=O)N[C@@H](CC(C)C)C(=O)N(C)[C@@H](C)C(=O)N[C@H](CC(C)C)C(=O)N2CCC[C@@H]2C(=O)O[C@@H]1C | -6.11
CC(=O)N1CCC[C@H]1C(=O)N(C)[C@H](CC(C)C)C(=O)N[C@@H]1C(=O)N[C@H](CC(C)C)C(=O)N(C)[C@H](CC(C)C)C(=O)N(C)[C@@H](CC(C)C)C(=O)N[C@@H](C)C(=O)N[C@H](CC(C)C)C(=O)N2CCC[C@H]2C(=O)O[C@@H]1C | -5.94
CC(=O)N[C@@H]1C(=O)N2CCC[C@H]2C(=O)N(C)[C@H](CC(C)C)C(=O)N(C)[C@H](CC(C)C)C(=O)N(C)[C@H](CC(C)C)C(=O)N(C)[C@@H](CC(C)C)C(=O)N(C)[C@@H](C)C(=O)N[C@@H](CC(C)C)C(=O)N2CCC[C@@H]2C(=O)O[C@@H]1C | -5.80
CC(=O)N1CCC[C@@H]1C(=O)N(C)[C@@H](CC(C)C)C(=O)N[C@@H]1C(=O)N[C@H](CC(C)C)C(=O)N[C@@H](CC(C)C)C(=O)N(C)[C@H](CC(C)C)C(=O)N[C@H](C)C(=O)N[C@@H](CC(C)C)C(=O)N2CCC[C@@H]2C(=O)O[C@@H]1C | -5.31
CC(=O)N1CCC[C@H]1C(=O)N(C)[C@@H](CC(C)C)C(=O)N[C@@H]1C(=O)N(C)[C@H](CC(C)C)C(=O)N(C)[C@@H](CC(C)C)C(=O)N[C@@H](CC(C)C)C(=O)N(C)[C@H](C)C(=O)N[C@H](CC(C)C)C(=O)N2CCC[C@@H]2C(=O)O[C@@H]1C | -5.98
CC(=O)N1CCC[C@@H]1C(=O)N(C)[C@@H](CC(C)C)C(=O)N[C@@H]1C(=O)N(C)[C@@H](CC(C)C)C(=O)N(C)[C@H](CC(C)C)C(=O)N(C)[C@@H](CC(C)C)C(=O)N(C)[C@@H](C)C(=O)N[C@@H](CC(C)C)C(=O)N2CCC[C@H]2C(=O)O[C@@H]1C | -5.44
CC(=O)N1CCC[C@H]1C(=O)N(C)[C@@H](CC(C)C)C(=O)N[C@@H]1C(=O)N[C@@H](CC(C)C)C(=O)N[C@@H](CC(C)C)C(=O)N[C@@H](CC(C)C)C(=O)N[C@@H](C)C(=O)N[C@H](CC(C)C)C(=O)N2CCC[C@@H]2C(=O)O[C@@H]1C | -9.00
CC(=O)N1CCC[C@@H]1C(=O)N(C)[C@H](CC(C)C)C(=O)N[C@@H]1C(=O)N[C@H](CC(C)C)C(=O)N[C@H](CC(C)C)C(=O)N(C)[C@H](CC(C)C)C(=O)N[C@H](C)C(=O)N[C@H](CC(C)C)C(=O)N2CCC[C@H]2C(=O)O[C@@H]1C | -5.70
CC(=O)N1CCC[C@H]1C(=O)N[C@@H]1C(=O)N[C@H](CC(C)C)C(=O)N[C@@H](CC(C)C)C(=O)N[C@@H](CC(C)C)C(=O)N[C@H](CC(C)C)C(=O)N(C)[C@H](C)C(=O)N[C@@H](CC(C)C)C(=O)N2CCC[C@@H]2C(=O)O[C@@H]1C | -5.01
CC(=O)N1CCC[C@H]1C(=O)N[C@@H]1C(=O)N[C@H](CC(C)C)C(=O)N(C)[C@H](CC(C)C)C(=O)N[C@@H](CC(C)C)C(=O)N(C)[C@H](CC(C)C)C(=O)N[C@@H](C)C(=O)N[C@@H](CC(C)C)C(=O)N2CCC[C@@H]2C(=O)O[C@@H]1C | -5.18
CC(=O)N1CCC[C@H]1C(=O)N(C)[C@H](CC(C)C)C(=O)N[C@@H]1C(=O)N[C@@H](CC(C)C)C(=O)N(C)[C@H](CC(C)C)C(=O)N(C)[C@H](CC(C)C)C(=O)N(C)[C@@H](C)C(=O)N[C@@H](CC(C)C)C(=O)N2CCC[C@@H]2C(=O)O[C@@H]1C | -5.49
CC(=O)N1CCC[C@@H]1C(=O)N(C)[C@@H](CC(C)C)C(=O)N[C@@H]1C(=O)N[C@H](CC(C)C)C(=O)N[C@@H](CC(C)C)C(=O)N(C)[C@H](CC(C)C)C(=O)N(C)[C@H](C)C(=O)N[C@@H](CC(C)C)C(=O)N2CCC[C@@H]2C(=O)O[C@@H]1C | -5.57
CC(=O)N1CCC[C@@H]1C(=O)N(C)[C@@H](CC(C)C)C(=O)N[C@@H]1C(=O)N(C)[C@@H](CC(C)C)C(=O)N(C)[C@H](CC(C)C)C(=O)N[C@@H](CC(C)C)C(=O)N(C)[C@H](C)C(=O)N[C@H](CC(C)C)C(=O)N2CCC[C@H]2C(=O)O[C@@H]1C | -5.56
CC(=O)N1CCC[C@@H]1C(=O)N(C)[C@@H](CC(C)C)C(=O)N[C@@H]1C(=O)N(C)[C@H](CC(C)C)C(=O)N(C)[C@H](CC(C)C)C(=O)N(C)[C@@H](CC(C)C)C(=O)N(C)[C@H](C)C(=O)N[C@@H](CC(C)C)C(=O)N2CCC[C@H]2C(=O)O[C@@H]1C | -5.17
CC(=O)N1CCC[C@H]1C(=O)N(C)[C@H](CC(C)C)C(=O)N[C@@H]1C(=O)N[C@H](CC(C)C)C(=O)N[C@@H](CC(C)C)C(=O)N(C)[C@@H](CC(C)C)C(=O)N(C)[C@@H](C)C(=O)N[C@H](CC(C)C)C(=O)N2CCC[C@H]2C(=O)O[C@@H]1C | -5.46
CC(=O)N1CCC[C@H]1C(=O)N(C)[C@@H](CC(C)C)C(=O)N[C@@H]1C(=O)N[C@H](CC(C)C)C(=O)N[C@@H](CC(C)C)C(=O)N[C@@H](CC(C)C)C(=O)N(C)[C@@H](C)C(=O)N[C@@H](CC(C)C)C(=O)N2CCC[C@@H]2C(=O)O[C@@H]1C | -6.43

Repeated from above, the 2 entries with the highest PAMPA:

{"smiles": "CC(=O)N1CCC[C@H]1C(=O)N[C@@H]1C(=O)N[C@H](CC(C)C)C(=O)N[C@@H](CC(C)C)C(=O)N[C@@H](CC(C)C)C(=O)N[C@H](CC(C)C)C(=O)N(C)[C@H](C)C(=O)N[C@@H](CC(C)C)C(=O)N2CCC[C@@H]2C(=O)O[C@@H]1C", "PAMPA (log10 cm/s)": "-5.01"}
{"smiles": "CC(=O)N1CCC[C@@H]1C(=O)N(C)[C@@H](CC(C)C)C(=O)N[C@@H]1C(=O)N(C)[C@H](CC(C)C)C(=O)N(C)[C@H](CC(C)C)C(=O)N(C)[C@@H](CC(C)C)C(=O)N(C)[C@H](C)C(=O)N[C@@H](CC(C)C)C(=O)N2CCC[C@H]2C(=O)O[C@@H]1C", "PAMPA (log10 cm/s)": "-5.17"}

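Conditions beyond the assay type are not listed; see the original paper. Other peptides of the study may be missing here. Peptides that the database sets to -10, its floor, are left out.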